Paper PMC2861366 (Biochemistry, 2010)
Values joined by “and” are separate entries in the source; they are usually repeats but may differ in a detail not shown here. Identical values can stand only once. Like-named read-outs stand apart in the source and are kept apart here.

The chains behind the UniProt entries cited, without tags or fusion partners. Where a name states a change or a piece, a line headed by the entry shows the natural chain unless it says otherwise.
UniProt P17888: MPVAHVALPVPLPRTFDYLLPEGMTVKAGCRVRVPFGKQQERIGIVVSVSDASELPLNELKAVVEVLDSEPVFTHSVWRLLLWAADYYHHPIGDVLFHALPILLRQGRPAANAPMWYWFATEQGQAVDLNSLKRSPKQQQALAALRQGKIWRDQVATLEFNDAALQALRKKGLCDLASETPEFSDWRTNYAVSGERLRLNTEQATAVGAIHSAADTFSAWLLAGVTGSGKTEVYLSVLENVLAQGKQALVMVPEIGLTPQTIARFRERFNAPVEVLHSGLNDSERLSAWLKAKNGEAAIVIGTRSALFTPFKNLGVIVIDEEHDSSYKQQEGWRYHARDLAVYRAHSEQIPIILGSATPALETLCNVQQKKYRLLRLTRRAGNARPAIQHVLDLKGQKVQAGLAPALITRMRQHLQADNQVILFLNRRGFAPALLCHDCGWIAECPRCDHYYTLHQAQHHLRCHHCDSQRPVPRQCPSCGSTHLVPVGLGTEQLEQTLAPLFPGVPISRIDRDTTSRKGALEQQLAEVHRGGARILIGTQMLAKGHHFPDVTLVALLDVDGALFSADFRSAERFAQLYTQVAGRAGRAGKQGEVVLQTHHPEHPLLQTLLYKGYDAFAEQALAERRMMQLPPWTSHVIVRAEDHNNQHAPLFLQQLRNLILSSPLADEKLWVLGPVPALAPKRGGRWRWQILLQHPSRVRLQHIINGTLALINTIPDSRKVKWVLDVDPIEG

B1: χ subunit of DNA polymerase III holoenzyme (natural protein, E. coli, UniProt P28905 1-147, looked up)
chain: MKNATFYLLDNDTTVDGLSAVEQLVCEIAAERWRSGKRVLIACEDEKQAYRLDEALWARPAESFVPHNLAGEGPRGGAPVEIAWPQKRSSSRRDILISLRTSFADFATAFTEVVDFVPYEDSLKQLARERYKAYRVAGFNLNTATWK
B2: E. coli single stranded DNA binding (SSB) protein (natural protein, UniProt P0AGE0 1-178, looked up)
chain: MASRGVNKVILVGNLGQDPEVRYMPNGGAVANITLATSESWRDKATGEMKEQTEWHRVVLFGKLAEVASEYLRKGSQVYIEGQLRTRKWTDQSGQDRYTTEVVVNVGGTMQMLGGRQGGGAPAGGNIGGGQPQGGWGQPQQPQGGNQFSGGAQSRPQQSAPAAPSNEPPMDFDDDIPF

Columns and labels:
Experiment in all cases: ITC
[1] = target: B2
[2] = target: B2; remark: listed apart in the source
[3] = target: B2; remark: listed apart in the source
[4] = target: B2; remark: listed apart in the source
[5] = target: B2; remark: listed apart in the source
[6] = target: T1, E. coli PriA helicase (E. coli, UniProt P17888)
[7] = target: T1, E. coli PriA helicase; remark: listed apart in the source
[8] = target: T1, E. coli PriA helicase; remark: listed apart in the source
[9] = target: T1, E. coli PriA helicase; remark: listed apart in the source
[10] = target: B1
[11] = target: B1; remark: listed apart in the source
[12] = target: T1, E. coli PriA helicase; remark: listed apart in the source
[13] = target: T1, E. coli PriA helicase; remark: listed apart in the source
[14] = target: T1, E. coli PriA helicase; remark: listed apart in the source

## B1
[1]
  Ka: 5.5e+06 M⁻¹
  stoichiometry N: 3.5 ± 0.1
[2]
  Ka: 540000 M⁻¹
  dH: -9.5 ± 1 kcal/mol
  stoichiometry N: 3.9 ± 0.3
[3]
  Ka: 3.8e+06 M⁻¹
[4]
  Ka: 7.6e+06 M⁻¹
[5]
  Ka: 300000 M⁻¹
  dH: -6.1 ± 1.1 kcal/mol
  stoichiometry N: 3.9 ± 0.4

## B2
[6]
  Ka: 390000 M⁻¹
  dH: -8.1 ± 1 kcal/mol
[7]
  Ka: 2e+06 to 5e+06 M⁻¹
[8]
  Ka: 3.7e+06 M⁻¹
  dH: -18.1 ± 2.6 kcal/mol
  stoichiometry N: 3.2 and ~4 and 4
[9]
  Ka: 4e+06 M⁻¹
  dH: -18.3 ± 2 kcal/mol
  stoichiometry N: 3 ± 0.3
[10]
  dH: -8.9 ± 0.2 kcal/mol
  stoichiometry N: 4.3 ± 0.2
[11]
  dH: -8.7 ± 0.3 kcal/mol
  stoichiometry N: 4.5 ± 0.2
[12]
  Ka: 1.9e+06 M⁻¹
  dH: -8.6 ± 0.3 kcal/mol
  stoichiometry N: 3.8 ± 0.4
[13]
  Ka: 3.2e+06 M⁻¹ and 1.1e+06 M⁻¹
  dH: -16.6 kcal/mol and -16.9 kcal/mol
  stoichiometry N: 2.2 and 2
[14]
  Ka: 450000 M⁻¹
  dH: -7.5 ± 0.5 kcal/mol
